{"source": "paper PMC9257752", "about": "“Intestinal Absorption of FITC-Dextrans and Macromolecular Model Drugs in the Rat Intestinal Instillation Model” (Molecular Pharmaceutics, 2022)", "key": {"[1]": {"settings": "oral administration to rats; molecular weight of FITC-dextrans excreted in urine similar to administered; cited from earlier work"}, "[2]": {"assay": "Rat intestinal instillation model (intraduodenal administration, plasma pharmacokinetics, deconvolution)", "settings": "for Proportion of total absorption (120 min) occurring in interval 0–20 min / Proportion of total absorption (120 min) occurring in interval 20–40 min / Proportion of total absorption (120 min) occurring in interval 40–60 min / Proportion of total absorption (120 min) occurring in interval 60–80 min / Proportion of total absorption (120 min) occurring in interval 80–100 min / Proportion of total absorption (120 min) occurring in interval 100–120 min: average ± SD"}, "[3]": {"settings": "rat intestinal instillation, cited from earlier work; for Proportion of total absorption (120 min) occurring in interval 0–20 min / Proportion of total absorption (120 min) occurring in interval 20–40 min / Proportion of total absorption (120 min) occurring in interval 40–60 min / Proportion of total absorption (120 min) occurring in interval 60–80 min / Proportion of total absorption (120 min) occurring in interval 80–100 min / Proportion of total absorption (120 min) occurring in interval 100–120 min: average ± SD; for Tmax: median (min–max)"}, "[4]": {"settings": "0 mM C10, numerical deconvolution, n = 5–6 (PEP12210 n = 2)"}, "[5]": {"settings": "50 mM C10, numerical deconvolution, n = 5–6"}, "[6]": {"settings": "300 mM C10, numerical deconvolution, n = 5–6"}}, "note": "Like-named read-outs stand apart in the source and are kept apart here.", "data": [{"substance": "FITC-dextran 20 000", "values": [{"measurement": "Degradation in the gastrointestinal tract", "setting": "[1]", "result": "not degraded to any significant extent"}]}, {"substance": "FITC-dextran 10 000 [FD10]", "values": [{"measurement": "Tmax", "setting": "[2]; 0 mM C10, blank FaSSIF pH 6.5, median (min–max), n = 5–6 (PEP12210 n = 2)", "result": "120 (45–120) min"}, {"measurement": "Proportion of total absorption (120 min) occurring in interval 0–20 min", "setting": "[2]; [4]", "result": "20% ± 4.1%"}, {"measurement": "Proportion of total absorption (120 min) occurring in interval 20–40 min", "setting": "[2]; [4]", "result": "17% ± 1.1%"}, {"measurement": "Proportion of total absorption (120 min) occurring in interval 40–60 min", "setting": "[2]; [4]", "result": "17% ± 0.83%"}, {"measurement": "Proportion of total absorption (120 min) occurring in interval 60–80 min", "setting": "[2]; [4]", "result": "16% ± 1.3%"}, {"measurement": "Proportion of total absorption (120 min) occurring in interval 80–100 min", "setting": "[2]; [4]", "result": "15% ± 2.2%"}, {"measurement": "Proportion of total absorption (120 min) occurring in interval 100–120 min", "setting": "[2]; [4]", "result": "15% ± 2.1%"}, {"measurement": "Tmax", "setting": "[2]; 50 mM C10, blank FaSSIF pH 6.5, median (min–max), n = 5–6", "result": "5 (5–10) min"}, {"measurement": "Proportion of total absorption (120 min) occurring in interval 0–20 min", "setting": "[2]; [5]", "result": "74% ± 7.1%"}, {"measurement": "Proportion of total absorption (120 min) occurring in interval 20–40 min", "setting": "[2]; [5]", "result": "12% ± 2.3%"}, {"measurement": "Proportion of total absorption (120 min) occurring in interval 40–60 min", "setting": "[2]; [5]", "result": "5.8% ± 1.8%"}, {"measurement": "Proportion of total absorption (120 min) occurring in interval 60–80 min", "setting": "[2]; [5]", "result": "4.0% ± 1.5%"}, {"measurement": "Proportion of total absorption (120 min) occurring in interval 80–100 min", "setting": "[2]; [5]", "result": "2.4% ± 1.7%"}, {"measurement": "Proportion of total absorption (120 min) occurring in interval 100–120 min", "setting": "[2]; [5]", "result": "2.2% ± 2.0%"}, {"measurement": "Tmax", "setting": "[2]; 300 mM C10, blank FaSSIF pH 6.5, median (min–max), n = 5–6", "result": "30 (10–30) min"}, {"measurement": "Proportion of total absorption (120 min) occurring in interval 0–20 min", "setting": "[2]; [6]", "result": "43% ± 8.7%"}, {"measurement": "Proportion of total absorption (120 min) occurring in interval 20–40 min", "setting": "[2]; [6]", "result": "27% ± 1.2%"}, {"measurement": "Proportion of total absorption (120 min) occurring in interval 40–60 min", "setting": "[2]; [6]", "result": "17% ± 3.4%"}, {"measurement": "Proportion of total absorption (120 min) occurring in interval 60–80 min", "setting": "[2]; [6]", "result": "8.6% ± 2.8%"}, {"measurement": "Proportion of total absorption (120 min) occurring in interval 80–100 min", "setting": "[2]; [6]", "result": "3.5% ± 2.2%"}, {"measurement": "Proportion of total absorption (120 min) occurring in interval 100–120 min", "setting": "[2]; [6]", "result": "1.2% ± 0.76%"}]}, {"substance": "fluorescein isothiocyanate (FITC)-dextran 4000 [FD4]", "values": [{"measurement": "Degradation in the gastrointestinal tract", "setting": "[1]", "result": "not degraded to any significant extent"}, {"measurement": "Proportion of total absorption (120 min) occurring in interval 0–20 min", "setting": "[3]; FD4, 0 mM C10", "result": "17% ± 1.5%"}, {"measurement": "Proportion of total absorption (120 min) occurring in interval 20–40 min", "setting": "[3]; FD4, 0 mM C10", "result": "17% ± 1.6%"}, {"measurement": "Proportion of total absorption (120 min) occurring in interval 40–60 min", "setting": "[3]; FD4, 0 mM C10", "result": "16% ± 1.0%"}, {"measurement": "Proportion of total absorption (120 min) occurring in interval 60–80 min", "setting": "[3]; FD4, 0 mM C10", "result": "16% ± 0.79%"}, {"measurement": "Proportion of total absorption (120 min) occurring in interval 80–100 min", "setting": "[3]; FD4, 0 mM C10", "result": "17% ± 1.1%"}, {"measurement": "Proportion of total absorption (120 min) occurring in interval 100–120 min", "setting": "[3]; FD4, 0 mM C10", "result": "17% ± 2.3%"}, {"measurement": "Tmax", "setting": "[3]; FD4, 0 mM C10", "result": "90 (90–120) min"}, {"measurement": "Proportion of total absorption (120 min) occurring in interval 0–20 min", "setting": "[3]; FD4, 50 mM C10", "result": "72% ± 6.8%"}, {"measurement": "Proportion of total absorption (120 min) occurring in interval 20–40 min", "setting": "[3]; FD4, 50 mM C10", "result": "8.3% ± 3.8%"}, {"measurement": "Proportion of total absorption (120 min) occurring in interval 40–60 min", "setting": "[3]; FD4, 50 mM C10", "result": "5.1% ± 2.8%"}, {"measurement": "Proportion of total absorption (120 min) occurring in interval 60–80 min", "setting": "[3]; FD4, 50 mM C10", "result": "5.7% ± 1.5%"}, {"measurement": "Proportion of total absorption (120 min) occurring in interval 80–100 min", "setting": "[3]; FD4, 50 mM C10", "result": "5.2% ± 1.5%"}, {"measurement": "Proportion of total absorption (120 min) occurring in interval 100–120 min", "setting": "[3]; FD4, 50 mM C10", "result": "3.7% ± 0.19%"}, {"measurement": "Tmax", "setting": "[3]; FD4, 50 mM C10", "result": "10 (5–10) min"}, {"measurement": "Proportion of total absorption (120 min) occurring in interval 0–20 min", "setting": "[3]; FD4, 300 mM C10", "result": "44% ± 8.5%"}, {"measurement": "Proportion of total absorption (120 min) occurring in interval 20–40 min", "setting": "[3]; FD4, 300 mM C10", "result": "27% ± 1.7%"}, {"measurement": "Proportion of total absorption (120 min) occurring in interval 40–60 min", "setting": "[3]; FD4, 300 mM C10", "result": "15% ± 3.7%"}, {"measurement": "Proportion of total absorption (120 min) occurring in interval 60–80 min", "setting": "[3]; FD4, 300 mM C10", "result": "7.3% ± 3.3%"}, {"measurement": "Proportion of total absorption (120 min) occurring in interval 80–100 min", "setting": "[3]; FD4, 300 mM C10", "result": "3.9% ± 3.1%"}, {"measurement": "Proportion of total absorption (120 min) occurring in interval 100–120 min", "setting": "[3]; FD4, 300 mM C10", "result": "3.5% ± 1.1%"}, {"measurement": "Tmax", "setting": "[3]; FD4, 300 mM C10", "result": "30 (30–45) min"}]}]}
